A short description of this data set: Vapour pressure of organic explosives at 25° C. To be noted: DMNB versus any of the nitramine explosives.

Regarding `CC(C)([N+](=O)[O-])C(C)(C)[N+](=O)[O-]`, the “vapour pressure relative to the nitramine explosives” value is listed as “more than 1 million”.

Values taken from patent publication US9706755B2, “Controlled odor mimic permeation system” (dated 2017).
